Results: patent US10870689B2, “ApoM-Fc fusion proteins, complexes thereof with sphingosine 1-phosphate (S1P), and methods for treating vascular and non-vascular diseases” (Children's Medical Center Corporation, priority 2016, dated 2020)

The chains behind the UniProt entries cited, without tags or fusion partners.
UniProt P21453, whole entry: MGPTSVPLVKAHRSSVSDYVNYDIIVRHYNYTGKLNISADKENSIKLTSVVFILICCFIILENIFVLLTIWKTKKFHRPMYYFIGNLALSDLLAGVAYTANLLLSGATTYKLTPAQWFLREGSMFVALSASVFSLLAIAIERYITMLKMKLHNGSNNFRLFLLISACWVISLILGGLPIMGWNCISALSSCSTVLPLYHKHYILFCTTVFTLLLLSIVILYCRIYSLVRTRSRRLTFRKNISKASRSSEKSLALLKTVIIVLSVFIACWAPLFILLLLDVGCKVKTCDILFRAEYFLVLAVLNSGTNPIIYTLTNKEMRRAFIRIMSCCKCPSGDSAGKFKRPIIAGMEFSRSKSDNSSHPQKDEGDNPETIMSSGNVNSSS

Target: T1, S1P1 (Homo sapiens, UniProt P21453)
T1 construct: expressed in transfected cells
Experiment: S1P1 internalization in U2OS cells expressing S1P1-GFP
Format: cell-based
Settings: 30 min
Protocol: The human osteosarcoma cell line, U2OS, was created to stably express the S1P1 receptor fused to GFP and selected for high-level expression. Cells were plated in a 384 well plate and brought to confluence. Cells were then starved in serum-free media for 2 hours and individual wells were stimulated for 30 minutes with several concentrations of FTY720-P, Albumin-S1P (10-100 nM), ApoM-Fc-S1P (1-20 μg/ml ) or ApoM-Fc-TM (1-20 μg/ml). Cells were then fixed for 15 minutes with 4% PFA and permeabilized 10 minutes in PBS-0.1% Triton. Nuclei were stained with DAPI for 5 minutes. Cells were maintained in PBS, imaged in 384 well plates by an ArrayScan VTI at 10× using the spot detector software.

- internalization of S1P1 receptor: induced
SMILES: CCCCCCCCc1ccc(CC[C@](N)(CO)COP(=O)(O)O)cc1 [FTY720-P]
